The species entered for test [1] is Mus musculus. In words: Selectivity ratio of Ki for mouse delta opioid receptor to Ki for mouse mu opioid receptor.
Test [2] is filed under the species Mus musculus. Description: Selectivity ratio of Ki for mouse kappa opioid receptor to Ki for mouse mu opioid receptor.
In test [3] the target is Mu-type opioid receptor (Mus musculus) (UniProt P42866). Description: Agonist activity at mouse mu opioid receptor expressed in CHO cells assessed as stimulation of [35S]-GTPgammaS binding after 1.5 hrs relative to DAMGO. The test is classed as functional, cell-based.

By UniProt entry, the sequences of proteins in these tests, tags left out.
UniProt P42866, whole entry: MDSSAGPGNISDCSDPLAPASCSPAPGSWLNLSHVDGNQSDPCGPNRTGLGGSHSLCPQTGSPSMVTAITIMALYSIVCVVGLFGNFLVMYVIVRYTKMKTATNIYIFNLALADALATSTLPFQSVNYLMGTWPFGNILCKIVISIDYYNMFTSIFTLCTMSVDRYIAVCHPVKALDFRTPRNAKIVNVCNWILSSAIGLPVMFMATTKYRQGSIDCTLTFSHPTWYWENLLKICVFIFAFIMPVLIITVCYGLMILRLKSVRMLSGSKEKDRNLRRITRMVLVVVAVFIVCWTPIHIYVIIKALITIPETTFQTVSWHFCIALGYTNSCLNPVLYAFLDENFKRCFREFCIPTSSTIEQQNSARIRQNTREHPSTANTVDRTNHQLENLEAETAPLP

For `O=C(N[C@H]1CC[C@@]2(O)[C@H]3Cc4ccc(O)c5c4[C@@]2(CCN3CC2CC2)[C@H]1O5)c1ncc2ccccc2c1O`, the figures for the Ratio Ki in test [1] and in test [2] were 73 and 8.9, respectively.

As to `O=C(N[C@H]1CC[C@@]2(O)[C@H]3Cc4ccc(O)c5c4[C@@]2(CCN3CC2CC2)[C@H]1O5)c1cc2ccccc2c(Cl)n1`, in test [3], the maximal response (Emax) turned out to be 26.4%. The figures for the Ratio Ki in test [1] and in test [2] were 63 and 8.6, respectively.

The record behind these values is ChEMBL document CHEMBL2417375 (Bioorg Med Chem Lett, 2013).
